Literature values, collected in patent US7825126B2 (The United States of America as represented by the …, priority 2004, dated 2010).

By UniProt entry, the sequences of proteins in these tests, tags left out. Where a name states a change or a piece, a line headed by the entry shows the natural chain unless it says otherwise.
UniProt P29275, whole entry: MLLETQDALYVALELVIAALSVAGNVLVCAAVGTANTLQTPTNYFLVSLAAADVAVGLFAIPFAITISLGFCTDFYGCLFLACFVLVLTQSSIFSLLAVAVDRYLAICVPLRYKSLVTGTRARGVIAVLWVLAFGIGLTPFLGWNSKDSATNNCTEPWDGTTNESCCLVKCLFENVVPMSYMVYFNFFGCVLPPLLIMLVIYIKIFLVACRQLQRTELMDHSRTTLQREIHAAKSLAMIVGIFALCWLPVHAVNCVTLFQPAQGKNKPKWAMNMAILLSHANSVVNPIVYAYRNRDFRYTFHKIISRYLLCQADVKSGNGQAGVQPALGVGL

Biological target: human A2B adenosine receptor (hA2BAR) (Homo sapiens, UniProt P29275)
Settings: data from literature (footnotes c, f, h); cited from earlier work

SMILES: COc1ccc(Cl)cc1CNc1ncnc2c1ncn2[C@@H]1O[C@H](CO)[C@@H](O)[C@H]1O
- % Activation (hA2BAR) at 10 μM: 57%
